Assay [1] relates to p53-dependent transcription. As to the kind of experiment: p53-dependent transcription in T22 RGC-ΔFos-lacZ cells (primary screen, beta-galactosidase/CPRG). The format is cell-based. To be noted: JJ91 activity taken as 100%.
A further assay concerns the target SirT1 (Homo sapiens (Human), UniProt Q96EB6). As to the kind of experiment: In vitro deacetylation assay (Fluor de Lys SirT1 Fluorescent Activity Assay). The class given is biochemical.

Amino acid sequences for entries named in this document (tags omitted). A change or cut given only in a name is not applied to a line headed by its entry.
UniProt Q96EB6: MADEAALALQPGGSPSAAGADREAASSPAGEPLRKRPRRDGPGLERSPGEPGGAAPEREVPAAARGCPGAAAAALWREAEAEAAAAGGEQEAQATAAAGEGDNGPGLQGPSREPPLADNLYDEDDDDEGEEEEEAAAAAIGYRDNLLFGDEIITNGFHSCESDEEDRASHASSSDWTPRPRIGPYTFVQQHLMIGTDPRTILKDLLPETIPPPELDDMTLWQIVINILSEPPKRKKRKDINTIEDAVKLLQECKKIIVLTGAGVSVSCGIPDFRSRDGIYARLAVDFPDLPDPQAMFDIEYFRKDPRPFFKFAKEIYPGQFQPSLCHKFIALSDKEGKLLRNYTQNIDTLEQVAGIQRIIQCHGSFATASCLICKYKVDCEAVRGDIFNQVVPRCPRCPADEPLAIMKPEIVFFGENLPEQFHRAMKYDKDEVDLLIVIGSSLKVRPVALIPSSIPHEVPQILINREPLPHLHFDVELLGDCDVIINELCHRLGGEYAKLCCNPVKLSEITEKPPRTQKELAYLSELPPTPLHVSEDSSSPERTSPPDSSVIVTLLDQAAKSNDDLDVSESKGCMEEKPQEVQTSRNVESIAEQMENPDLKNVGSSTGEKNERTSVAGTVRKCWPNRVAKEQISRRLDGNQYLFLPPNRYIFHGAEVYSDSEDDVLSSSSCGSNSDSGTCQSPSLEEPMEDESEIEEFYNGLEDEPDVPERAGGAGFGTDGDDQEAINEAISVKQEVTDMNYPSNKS

For the compound `CN(C)CCCCC(=O)Nc1ccc(NC(=S)NC(=O)c2ccc(C(C)(C)C)cc2)cc1.Cl` [Tenovin 6, 5-Dimethylamino-pentanoic acid {4-[3-(4-tert-butyl-benzoyl)-thioureido]-phenyl}-amide hydrochloride], in assay [1], the “Bioactivity (relative to JJ91)” value is on record as “Active (63.8%)”. The “inhibition of SirT1 activity (in words)” value on SirT1 was “particularly effective in inhibiting SirT1 activity”.

The record behind these values is patent US8501991B2, “P53 activating compounds” (University Court of the University of Dundee, priority 2006, dated 2013).
